According to US6515103B1 (priority 1996, dated 2003):

Target: NMDA receptor
Assay type: binding
Conditions: not given

| Structure (SMILES) | IC50 [nM] |
| --- | --- |
| CC[C@H](C)[C@H](NC(=O)[C@H](CC(C)C)NC(=O)[C@H](C)NC(=O)[C@H](CCC(N)=O)NC(=O)[C@H](CC(N)=O)NC(=O)[C@H](C)NC(=O)[C@H](CCC(N)=O)NC(=O)[C@H](CC(C)C)NC(=O)[C@H](CC(C(=O)O)C(=O)O)NC(=O)[C@H](CC(C(=O)O)C(=O)O)NC(=O)[C@H](CCC(=O)O)NC(=O)CN)C(=O)N[C@@H](CCCNC(=N)N)C(=O)N[C@@H](C)C(N)=O [(A^7,10,14)1-14] | 232 |
| CC[C@H](C)[C@H](NC(=O)[C@H](CC(C)C)NC(=O)[C@H](C)NC(=O)[C@H](CCC(N)=O)NC(=O)[C@H](CC(N)=O)NC(=O)[C@H](C)NC(=O)[C@H](CCC(N)=O)NC(=O)[C@H](CC(C)C)NC(=O)[C@H](CC(C(=O)O)C(=O)O)NC(=O)[C@H](CC(C(=O)O)C(=O)O)NC(=O)[C@H](CCC(=O)O)NC(=O)CN)C(=O)N[C@@H](CCCNC(=N)N)C(=O)N[C@@H](C)C(=O)N[C@@H](CCCCN)C(N)=O [(A^7,10,14)1-15] | 34 |
| CC[C@H](C)[C@H](NC(=O)[C@H](CC(C)C)NC(=O)[C@H](C)NC(=O)[C@H](CCC(N)=O)NC(=O)[C@H](CC(N)=O)NC(=O)[C@H](C)NC(=O)[C@H](CCC(N)=O)NC(=O)[C@H](CC(C)C)NC(=O)[C@H](CC(C(=O)O)C(=O)O)NC(=O)[C@H](CC(C(=O)O)C(=O)O)NC(=O)[C@H](CCC(=O)O)NC(=O)CN)C(=O)N[C@@H](CCCNC(=N)N)C(=O)N[C@@H](C)C(=O)N[C@@H](CCCCN)C(=O)N[C@@H](CO)C(N)=O [(A^7,10,14)1-16] | 37 |
| CC[C@H](C)[C@H](NC(=O)[C@H](CC(C)C)NC(=O)[C@H](C)NC(=O)[C@H](CCC(N)=O)NC(=O)[C@H](CC(N)=O)NC(=O)[C@H](C)NC(=O)[C@H](CCC(N)=O)NC(=O)[C@H](CC(C)C)NC(=O)[C@H](CC(C(=O)O)C(=O)O)NC(=O)[C@H](CC(C(=O)O)C(=O)O)NC(=O)[C@H](CCC(=O)O)NC(=O)CN)C(=O)N[C@@H](CCCNC(=N)N)C(=O)N[C@@H](C)C(=O)N[C@@H](CCCCN)C(=O)N[C@@H](CO)C(=O)N[C@@H](CC(N)=O)C(N)=O [A^7,10,14] | 88 |
| CC[C@H](C)[C@H](NC(=O)[C@H](CC(C)C)NC(=O)[C@H](CCC(=O)O)NC(=O)[C@H](CCC(N)=O)NC(=O)[C@H](CC(N)=O)NC(=O)[C@H](CCC(=O)O)NC(=O)[C@H](CCC(N)=O)NC(=O)[C@H](CC(C)C)NC(=O)[C@H](CC(C(=O)O)C(=O)O)NC(=O)[C@H](CC(C(=O)O)C(=O)O)NC(=O)[C@H](CCC(=O)O)NC(=O)CN)C(=O)N[C@@H](CCCNC(=N)N)C(=O)N[C@@H](CCC(=O)O)C(=O)N[C@@H](CCCCN)C(=O)N[C@@H](CO)C(=O)N[C@@H](CC(N)=O)C(N)=O [E^7,10,14] | ≥ 20000 |
| CC[C@H](C)[C@H](NC(=O)[C@H](CC(C)C)NC(=O)[C@H](CC(C(=O)O)C(=O)O)NC(=O)[C@H](CCC(N)=O)NC(=O)[C@H](CC(N)=O)NC(=O)[C@H](Cc1ccc(O)cc1)NC(=O)[C@H](CCC(N)=O)NC(=O)[C@H](CC(C)C)NC(=O)[C@H](CC(C(=O)O)C(=O)O)NC(=O)[C@H](CC(C(=O)O)C(=O)O)NC(=O)[C@H](CCC(=O)O)NC(=O)CN)C(=O)N[C@@H](CCCNC(=N)N)C(=O)N[C@@H](CC(C(=O)O)C(=O)O)C(=O)N[C@@H](CCCCN)C(=O)N[C@@H](CO)C(=O)N[C@@H](CC(N)=O)C(N)=O [Y^3] | 960 |

System: not given
Conditions: 37° C.

| Structure (SMILES) | stability in biological media |
| --- | --- |
| CC[C@H](C)[C@H](NC(=O)[C@H](CC(C)C)NC(=O)[C@H](CC(C(=O)O)C(=O)O)NC(=O)[C@H](CCC(N)=O)NC(=O)[C@H](CC(N)=O)NC(=O)[C@H](CC(C(=O)O)C(=O)O)NC(=O)[C@H](CCC(N)=O)NC(=O)[C@H](CC(C)C)NC(=O)[C@H](CC(C(=O)O)C(=O)O)NC(=O)[C@H](C)NC(=O)[C@H](CCC(=O)O)NC(=O)CN)C(=O)N[C@@H](CCCNC(=N)N)C(=O)N[C@@H](CC(C(=O)O)C(=O)O)C(=O)N[C@@H](CCCCN)C(=O)N[C@@H](CO)C(=O)N[C@@H](CC(N)=O)C(N)=O [A^3] | stable |
